Data taken from publication PMC6677016, “Biochemical and structural explorations of α-hydroxyacid oxidases reveal a four-electron oxidative decarboxylation reaction” (Acta Crystallographica. Section D, Structural Biology, 2019).

Biological target: T1, p-Hydroxymandelate oxidase (Hmo) Y128F mutant (Amycolatopsis orientalis, UniProt O52792, Y128F)
T1 sequence (O52792 1-357 Y128F): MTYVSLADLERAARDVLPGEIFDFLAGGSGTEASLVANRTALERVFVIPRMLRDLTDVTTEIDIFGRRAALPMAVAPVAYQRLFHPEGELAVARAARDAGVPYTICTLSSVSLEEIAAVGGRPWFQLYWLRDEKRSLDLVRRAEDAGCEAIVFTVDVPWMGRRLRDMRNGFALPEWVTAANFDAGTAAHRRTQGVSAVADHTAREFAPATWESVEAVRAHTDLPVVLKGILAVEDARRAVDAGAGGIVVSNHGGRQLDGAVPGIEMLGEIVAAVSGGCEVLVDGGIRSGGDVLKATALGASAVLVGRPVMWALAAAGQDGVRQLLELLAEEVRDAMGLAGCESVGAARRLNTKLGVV

With O=C(O)Cc1ccccc1 [PA, phenylacetate] the “crystal structure (1.75 Å)” value was “The Y128F mutant liganded with phenylacetate, which is the product of the four-electron oxidation reaction”.
